Results published in patent US6444668B1 (Wyeth, priority 1999, dated 2002).

By UniProt entry, the sequences of proteins in these tests, tags left out.
UniProt P06401, whole entry: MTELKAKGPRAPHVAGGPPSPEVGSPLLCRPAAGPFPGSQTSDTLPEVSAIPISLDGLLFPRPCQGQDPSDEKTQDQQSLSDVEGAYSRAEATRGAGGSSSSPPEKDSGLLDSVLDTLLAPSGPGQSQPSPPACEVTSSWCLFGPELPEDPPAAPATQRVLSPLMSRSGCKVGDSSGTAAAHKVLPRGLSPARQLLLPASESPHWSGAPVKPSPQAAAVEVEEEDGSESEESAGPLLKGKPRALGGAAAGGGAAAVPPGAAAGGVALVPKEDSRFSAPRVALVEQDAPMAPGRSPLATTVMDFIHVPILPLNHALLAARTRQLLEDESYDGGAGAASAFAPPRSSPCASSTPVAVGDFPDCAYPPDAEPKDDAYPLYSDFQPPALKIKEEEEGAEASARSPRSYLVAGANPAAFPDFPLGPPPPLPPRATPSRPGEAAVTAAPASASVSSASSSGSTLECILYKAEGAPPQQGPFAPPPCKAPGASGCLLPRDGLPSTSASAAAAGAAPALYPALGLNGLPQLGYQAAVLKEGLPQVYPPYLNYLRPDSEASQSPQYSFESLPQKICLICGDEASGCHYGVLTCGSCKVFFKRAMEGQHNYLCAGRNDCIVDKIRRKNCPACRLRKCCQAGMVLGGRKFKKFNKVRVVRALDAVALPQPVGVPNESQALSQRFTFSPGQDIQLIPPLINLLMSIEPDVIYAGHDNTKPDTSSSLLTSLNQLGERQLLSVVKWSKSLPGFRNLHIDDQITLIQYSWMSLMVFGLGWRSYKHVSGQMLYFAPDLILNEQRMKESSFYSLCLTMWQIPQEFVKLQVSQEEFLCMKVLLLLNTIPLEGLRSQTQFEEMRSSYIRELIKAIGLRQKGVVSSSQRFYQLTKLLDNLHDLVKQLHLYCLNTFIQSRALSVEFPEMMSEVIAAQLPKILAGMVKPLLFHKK

Columns and labels:
human PR = human PR (Homo sapiens, UniProt P06401); test: PRE-luciferase assay in CV-1 cells; format: cell-based; details: read-out: hPR CV-1 IC50; PR antagonist; CV-1 cells co-transfected with human PR and PRE-luciferase; in the presence of 3 nM progesterone
[1] = system: rat uterine decidualization; test: Rat decidualization assay; details: half-maximal decrease in EC50 progesterone induced decidual response

IC50 (human PR): 13 nM | Decidualization IC50 [1]: 6.96 ± 0.84 mg/kg
SMILES: CC1(C)OC(=O)Nc2ccc(-c3ccc(F)c(C#N)c3)cc21 [Compound 1, 5-(4,4Dimethyl-2-oxo-1,4-dihydro-2H-benzo[d][1,3]oxazin-6-yl)-2-fluoro-benzonitrile]
